This note sets out measurements from PubChem BioAssay AID847 (SRMLSC, 2007).

One may read the viability as a read-out of living cells in per cent, often relative to untreated cells.

The entries are a selection whose mix differs from that of the whole data set. The source made the active and inactive calls.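 How the source made its calls: active means viability at or below the median of all test compounds minus 3 SD, in both replicates if run twice (cut at about 45% in these data); inconclusive means duplicate replicates that disagree with each other; inactive means viability above that cutoff in every replicate.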

The assay can be described thus: viability loss of SK-BR-3 cells – cell-based, human, 24 h, primary screen (AID 847).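 Further: 100% = median untreated cell wells and 0% = median positive control drug.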 The settings on record: SK-BR-3 viability, CellTiter-Glo ATP luminescence, at 10 µM, stronger effect = lower value. (ATP-based viability assays read luminescence as a measure of living cells.)
Regarding `O=C(OC1CN2CCC1CC2)C12CC3CC(CC(C3)C1)C2` (stereo unspecified), the viability is inactive: 60.8%.
In the case of `O=C(COc1ccccc1)OC1CN2CCC1CC2` (stereo unspecified), the viability was inactive: 78.8%.
For the compound `Cc1ccc(OCC(=O)OC2CN3CCC2CC3)cc1` (stereo unspecified), the viability is inactive: 102%.
As for `O=P1(Nc2ccc(Br)cn2)COc2ccccc2OC1`, the viability is inactive: 89.8%.
As to `O=P1(Nc2ncccn2)COc2ccccc2OC1`, the viability is inactive: 95.1%.
In the case of `O=P1(Nc2ccccn2)COc2ccccc2OC1`, the viability is inactive: 110%.
For the compound `Cc1cccc(OCC(=O)OC2CN3CCC2CC3)c1` (stereo unspecified), the viability was inactive: 104%.
Next, `COC(=O)c1cc2c(s1)N=C(c1ccccc1)N(C)P2(=O)N1CCOCC1` (stereo unspecified): inactive: 89.9%; `O=P1(Nc2nc3ccc(Cl)cc3s2)COc2ccccc2O1` (stereo unspecified): inactive: 102%.
As for `c1nnnn1CCn1cnnn1`, the viability is inactive: 89.1%.
`O=C(OC1CN2CCC1CC2)c1cccc(Cl)c1` (stereo unspecified): the viability is inactive: 99.4%.
